This assay concerns the target HSP-90 (Homo sapiens, UniProt P07900). Conditions: read-out: Kd of hot ligand; radioligand binding to HSP-90.

Each structure is given as a SMILES string.

Usually Kd stands for the constant that tells how readily two partners part at equilibrium. As to `[3H]CC([3H])CNC(=O)C1c2ccccc2CN1C(=O)c1cc(Cl)c(O)cc1O` (stereo not shown) [Compound A], the Kd was found to be 40 nM.

The values are drawn from patent US8080556B2, “2-amino pyrimidine compounds as potent HSP-90 inhibitors” (Pfizer Inc., priority 2008, dated 2011).
